Earlier results in patent US20180155693A1, “Method of Differentiating Stem Cells” (BioTime, Inc., priority 2008, published 2018).

Conditions: cited from earlier work

Question: Which half-life does the source give for insulin here?
Answer: Its half-life is 5 min.
